Each structure is given as a SMILES string. Some results are limits rather than exact numbers.

Protein sequences, listed by entry. Tags and fused reporters are not part of them.
UniProt P09874, whole entry: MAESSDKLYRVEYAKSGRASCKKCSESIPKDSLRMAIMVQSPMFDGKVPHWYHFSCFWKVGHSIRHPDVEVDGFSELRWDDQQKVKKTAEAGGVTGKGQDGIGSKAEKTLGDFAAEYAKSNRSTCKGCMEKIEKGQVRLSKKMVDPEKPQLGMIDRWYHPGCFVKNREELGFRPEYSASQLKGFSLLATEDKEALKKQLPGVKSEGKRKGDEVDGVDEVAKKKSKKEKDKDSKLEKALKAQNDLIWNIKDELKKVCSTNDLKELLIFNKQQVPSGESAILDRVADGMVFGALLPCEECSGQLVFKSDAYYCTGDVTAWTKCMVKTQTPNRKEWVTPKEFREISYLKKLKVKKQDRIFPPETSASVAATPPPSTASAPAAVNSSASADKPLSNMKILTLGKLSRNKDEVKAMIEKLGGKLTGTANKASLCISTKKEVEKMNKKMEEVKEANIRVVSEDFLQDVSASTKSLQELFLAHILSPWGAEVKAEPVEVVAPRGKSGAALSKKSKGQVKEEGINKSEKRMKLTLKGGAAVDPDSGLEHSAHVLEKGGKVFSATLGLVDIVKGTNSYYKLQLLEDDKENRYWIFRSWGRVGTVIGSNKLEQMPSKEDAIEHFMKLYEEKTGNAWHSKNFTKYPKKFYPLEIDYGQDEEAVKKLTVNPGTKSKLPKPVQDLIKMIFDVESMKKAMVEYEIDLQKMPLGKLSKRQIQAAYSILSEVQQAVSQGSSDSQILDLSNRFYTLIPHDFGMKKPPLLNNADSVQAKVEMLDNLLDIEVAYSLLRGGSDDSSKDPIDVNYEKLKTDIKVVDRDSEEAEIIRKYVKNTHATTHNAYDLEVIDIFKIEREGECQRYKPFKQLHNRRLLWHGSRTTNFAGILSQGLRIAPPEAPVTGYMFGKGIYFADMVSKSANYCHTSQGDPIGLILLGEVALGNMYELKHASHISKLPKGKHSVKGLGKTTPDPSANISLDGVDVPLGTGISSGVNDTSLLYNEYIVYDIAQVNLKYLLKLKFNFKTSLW

In general, IC50 refers to the concentration needed to halve the response being measured. As a reminder, the EC50 is the concentration that produces a half-maximal response.

In one data set the target is PARP-1 (Homo sapiens, UniProt P09874). Briefly: PARP-1 activity assay (HT Universal chemiluminescent PARP Assay Kit). Conditions: read-out: PARP1 enzyme IC50; 0.5 unit/well PARP-1, 25° C., 45 minutes. In kind it is biochemical.
For a further data set, the system named is MDA-MB-436 cells. Kind of data set: Cell proliferation assay (MTS, 7 days). To be noted: read-out: MDA-MB-436 cells EC50. The format is cell-based.
A short description of data set [1]: Pharmacokinetic assay, intravenous and oral administration. To be noted: after oral administrations in rats.
The test system of the next data set is SW620 xenograft. Briefly: In vivo efficacy study: potentiating antitumor activity in combination with temozolomide. To be noted: SW620 xenograft mice, oral, in combination with temozolomide (50 mg/kg) once daily for 5 days.

For `O=C(c1cc(Cn2c(=O)[nH]c(=O)c3ccccc32)ccc1F)N1CCC(O)CC1`, the IC50 on PARP-1 was in the range of 0.1 to 10 nM. In the data set on MDA-MB-436 cells, the EC50 was in the range of 1000 to 100000 nM.

Consider `CC(C)OC1CCN(C(=O)c2cc(Cn3c(=O)[nH]c(=O)c4ccccc43)ccc2F)CC1`, for which the IC50 on PARP-1 was 0.1 to 10 nM. Also, the half-maximal effective concentration (EC50) in the data set on MDA-MB-436 cells was more than 10 nM.

Take `O=C(c1cc(Cn2c(=O)[nH]c(=O)c3ccccc32)ccc1F)N1CCC(F)CC1`: the IC50 on PARP-1 was more than 10 nM. The EC50 with MDA-MB-436 cells was 1000 to 100000 nM.

Regarding `O=C(c1cc(Cn2c(=O)[nH]c(=O)c3ccccc32)ccc1F)N1CCC(F)(F)CC1`, at PARP-1, the IC50 was more than 10 nM. The concentration for a half-maximal effect (EC50) in the data set with MDA-MB-436 cells lay within 1000 to 100000 nM.

For the compound `CC(C)(C)OC1CCN(C(=O)c2cc(Cn3c(=O)[nH]c(=O)c4ccccc43)ccc2F)CC1`, on PARP-1, the 50% inhibitory concentration (IC50) fell in the range of 0.1 to 10 nM. For the same compound, in the data set on MDA-MB-436 cells, the concentration for a half-maximal effect (EC50) is more than 10 nM.

Regarding `O=C(c1cc(Cn2c(=O)[nH]c(=O)c3ccccc32)ccc1F)N1CCC(c2ncc[nH]2)CC1`, on PARP-1, the half-inhibitory concentration (IC50) is 0.1 to 10 nM. Also, in the data set on MDA-MB-436 cells, the EC50 lay in the range of 1000 to 100000 nM.

Consider `O=C(c1cc(Cn2c(=O)[nH]c(=O)c3ccccc32)ccc1F)N1Cc2ccccc2C1`, for which the half-inhibitory concentration (IC50) on PARP-1 fell in the range of 0.1 to 10 nM. Also, in the data set on MDA-MB-436 cells, the EC50 was more than 10 nM.

Turning to `CCOC1CCN(C(=O)c2cc(Cn3c(=O)[nH]c(=O)c4ccccc43)ccc2F)CC1`, the IC50 on PARP-1 lay within 0.1 to 10 nM. Moreover, the EC50 with MDA-MB-436 cells was more than 10 nM.

Consider `O=C(c1cc(Cn2c(=O)[nH]c(=O)c3ccccc32)ccc1F)N1CCN(c2ccccn2)CC1`, for which the 50% inhibitory concentration (IC50) on PARP-1 was in the range of 0.1 to 10 nM. For the same compound, the EC50 with MDA-MB-436 cells was more than 10 nM. Also, the “bioavailability (in words)” value in data set [1] is “bioavailable”. For the same compound, the “suppression of tumor growth compared to the temozolomide control” value with SW620 xenograft was “Significant suppression of tumor growth”.

For the origin of these results see US9090568B2, “Quinazolinediones and their use” (IMPACT Therapeutics, Inc., priority 2011, dated 2015).
